Laboratory results taken from publication PMC7214819 (Frontiers in Pharmacology, 2020).

Assays:
[1] = in vivo
[2] = in vivo, cited from earlier work
[3] = human, in vivo
[4] = human, in vivo; cited from earlier work

Teicoplanin
CL ([1]; human, iv): 0.008 ± ± 0.003 L/h/kg | θCL, typical value of apparent clearance ([1]; human, iv): 0.13 L/h | CL ([1]; human, SD): 0.013 ± 0.003 L/h/kg | θCL, typical value of apparent clearance [1]: 0.13 L/h | mean CL ([2]; human): 0.317 mL/min/kg | half-life of elimination [2]: 30 to 180 h | adverse reactions in patients with peak concentrations of 70–80 mg/L [3]: no significant adverse reactions | trough concentration at which development of hepatic function disorders would be more frequent [4]: over 30 mg/L | trough concentration at which elevated serum creatinine level would significantly increase [4]: > 60 mg/L | trough concentration suggested to be safe [4]: less than 30 mg/L | trough concentration with increased risk of organ toxicity [4]: greater than 40 mg/L

Where two headings read alike, the source gives them in different places.
